Experimental data: patent US20060122177A1

By UniProt entry, the sequences of proteins in these tests, tags left out.
UniProt P31652, whole entry: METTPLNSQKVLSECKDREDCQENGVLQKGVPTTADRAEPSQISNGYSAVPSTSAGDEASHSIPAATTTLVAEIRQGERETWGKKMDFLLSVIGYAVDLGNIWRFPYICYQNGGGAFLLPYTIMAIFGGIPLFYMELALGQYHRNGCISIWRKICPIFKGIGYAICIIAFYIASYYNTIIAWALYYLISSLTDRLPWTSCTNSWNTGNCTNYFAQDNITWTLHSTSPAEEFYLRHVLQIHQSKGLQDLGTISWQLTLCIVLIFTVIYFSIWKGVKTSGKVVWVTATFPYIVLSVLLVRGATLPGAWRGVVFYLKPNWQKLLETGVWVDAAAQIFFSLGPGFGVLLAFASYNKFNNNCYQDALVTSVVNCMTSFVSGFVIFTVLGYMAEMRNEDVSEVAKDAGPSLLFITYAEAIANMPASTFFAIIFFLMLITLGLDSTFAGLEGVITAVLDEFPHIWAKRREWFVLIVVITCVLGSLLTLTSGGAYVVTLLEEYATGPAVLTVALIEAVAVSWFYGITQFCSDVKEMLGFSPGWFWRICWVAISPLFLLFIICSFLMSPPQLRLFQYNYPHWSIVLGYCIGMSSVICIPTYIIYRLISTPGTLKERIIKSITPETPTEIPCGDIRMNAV
UniProt P61169, whole entry: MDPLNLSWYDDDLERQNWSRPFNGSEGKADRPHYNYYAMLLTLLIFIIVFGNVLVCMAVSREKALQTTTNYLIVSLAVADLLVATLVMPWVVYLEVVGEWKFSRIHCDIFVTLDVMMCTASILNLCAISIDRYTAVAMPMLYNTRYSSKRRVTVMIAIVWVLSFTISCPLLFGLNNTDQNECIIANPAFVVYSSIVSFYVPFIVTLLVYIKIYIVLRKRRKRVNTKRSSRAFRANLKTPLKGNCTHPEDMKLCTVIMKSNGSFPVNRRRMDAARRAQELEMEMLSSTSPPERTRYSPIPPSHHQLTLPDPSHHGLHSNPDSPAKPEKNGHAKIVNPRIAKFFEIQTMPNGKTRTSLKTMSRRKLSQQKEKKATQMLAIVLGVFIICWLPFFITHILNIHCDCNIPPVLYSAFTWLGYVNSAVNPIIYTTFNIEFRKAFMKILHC

What was measured:
[1] = target: serotonin reuptake sites (Rattus norvegicus, UniProt P31652); assay: In vitro affinity for serotonin reuptake sites ([3H]-paroxetine binding assay)
Description: Affinity of the compounds for serotonin reuptake sites was determined using the receptor binding assay described by E. Habert et al.,: “Characterisation of [^3H]-paroxetine binding to rat cortical membranes”, Eur.J.Pharmacol., 118, 107 - 114, 1985.
(§1) The affinity of the compounds of the invention for dopamine-D2 receptors and serotonine reuptake sites was determined as described above. From the binding affinity measured for a given compound of formula (1), one can estimate a theoretical lowest effective dose. At a concentration of the compound equal to twice the measured Ki-value, 100% of the receptors likely will be occupied by the compound. Converting that concentration to mg of compound per kg of patient yields a theoretical lowest effective dose, assuming ideal bioavailability. Pharmacokinetic, pharmacodynamic, and other considerations may alter the dose actually administered to a higher or lower value. The dosage expediently administered is 0.001-1000 mg/kg, preferably 0.1-100 mg/kg of patient's bodyweight.

[2] = target: dopamine-D2 receptors (Rattus norvegicus, UniProt P61169); assay: In vitro affinity for dopamine-D2 receptors ([3H]-spiroperidol receptor binding assay)
Description: In Vitro Affinity for Dopamine-D2 Receptors Affinity of the compounds for dopamine-D2 receptors was determined using the receptor binding assay described by 1. Creese, R. Schneider and S. H. Snyder: “[^3H]-Spiroperidol labels dopamine receptors in rat pituitary and brain”, Eur.J.Pharmacol., 46, 377 - 381, 1977.
as §1

SMILES	5-HT reuptake pKi [1]	Dopamine-D2 pKi [2]	5-HT reuptake pKi ([1]; tested form: fumarate)	Dopamine-D2 pKi ([2]; tested form: fumarate)	other results
NCCON=C(CCCCN1CCN(c2cccc3ccoc23)CC1)c1ccc(C(F)(F)F)cc1	8.3	6.6			
NCCO/N=C(\CCCCN1CCN(c2cccc3c2OCCO3)CC1)c1ccc(C(F)(F)F)cc1					5-HT reuptake pKi ([1]; tested form: trihydrochloride): 8.2; Dopamine-D2 pKi ([2]; tested form: trihydrochloride): 8.3
CNCCON=C(CCCCN1CCN(c2cccc3c2OCCO3)CC1)c1ccc(C(F)(F)F)cc1			7.5	8.4	
NCCON=C(CCCCN1CCN(c2cccc3[nH]c(=O)oc23)CC1)c1ccc(C(F)(F)F)cc1	8.3	8.2			
NCCON=C(CCCCCCN1CCN(c2cccc3c2OCCO3)CC1)c1ccc(C(F)(F)F)cc1			8.5	8.4	
COc1ccccc1N1CCN(CCCC(=NOCCN)c2ccc(F)cc2)CC1	7.3	8.6			
COc1ccccc1N1CCN(CCCCCCC(=NOCCN)c2ccc(C(F)(F)F)cc2)CC1	8.3	8.3			
CC(C)Oc1ccccc1N1CCN(CCCC(=NOCCN)c2ccc(C(F)(F)F)cc2)CC1			7.0	8.1	
NCCON=C(CCCCCN1CCN(c2cccc3c2OCCO3)CC1)c1ccc(C(F)(F)F)cc1			8.0	8.3	

Read-outs that look alike come from different tables or passages of the source.
